Columns and labels:
[1] = Reduction potential of organic acceptor compound by cyclic voltammetry; type: physicochemical; details: for Redox potential: organic acceptor
[2] = Solubility of organic acceptor compound in tetrahydrofuran (solvent of coating solution); type: physicochemical; details: for Solubility/THF [% by weight]: organic acceptor

Question: Which Redox potential ([1]; Table 4) does the source give for N#CN=C1c2cc([N+](=O)[O-])cc([N+](=O)[O-])c2-c2c1cc([N+](=O)[O-])cc2[N+](=O)[O-] here?
Answer: −0.37

Question: And the Redox potential ([1]; Table 6)?
Answer: −0.37

Question: What about the “Reduction Potential” value ([1]; to reference electrode (Ag+/Ag), cyclic voltammetry in dichloromethane) of the same compound?
Answer: −0.37 V

Question: And the Solubility ([2]; THF)?
Answer: 3 % by weight

Question: What about the “Solubility/THF [% by weight]” value ([2]; Table 4) of the same compound?
Answer: 3 % by weight

Question: And the “Solubility/THF [% by weight]” value ([2]; Table 6)?
Answer: 3 % by weight
